According to ChEMBL document CHEMBL4371046, “Discovery of 3-Ethyl-4-(3-isopropyl-4-(4-(1-methyl-1 H-pyrazol-4-yl)-1 H-imidazol-1-yl)-1 H-pyrazolo[3,4- b]pyridin-1-yl)benzamide (TAS-116) as a Potent, Selective, and Orally Available HSP90 Inhibitor” (J Med Chem, 2019):

Biological target: Heat shock protein HSP 90-alpha (Homo sapiens, UniProt P07900)
Assay: Displacement of biotin-labeled geldanamycin from His-tagged HSP90alpha NTD (unknown origin) preincubated for 2 hrs followed by biotin-labeled geldanamycin addition and measured after 1 hr by AlphaScreen assay
How it was run: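 Competitive AlphaScreen binding assay. His-tagged HSP90α N-terminal domain was incubated with test compounds at room temperature for 2 h. Biotin-labeled geldanamycin was then added for a further 1 h. Nickel-chelate acceptor and streptavidin donor beads were added, with 1 h incubation in the dark before plate reading. IC50 is given as mean ± SE (n = 3).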

Structure (SMILES)	IC50 [nM]
COc1ccc(-c2ccnc3c2c(C(C)C)nn3-c2ccc(C(N)=O)c(N[C@H]3CC[C@H](O)CC3)c2)cn1	1170
CC(C)c1nn(-c2ccc(C(N)=O)c(N[C@H]3CC[C@H](O)CC3)c2)c2nccc(-c3cnc4ccccc4c3)c12	58
